Literature values, collected in patent EP3760204A1, “MEDICAMENT FOR PREVENTION OR TREATMENT OF HUNTINGTON'S DISEASE” (Medizinische Universität Graz, priority 2019, dated 2021).

Settings: mouse brain, Keller et al.; cited from earlier work

hyperforin
passage of the blood-brain-barrier: readily pass the blood-brain-barrier
